Antibody variant affinities, Ab-14 light chain, assay B

The measurements come from Li et al. 2023 (doi:10.1038/s41467-023-39022-2) through the FLAb antibody collection.

The target is the same throughout: PDVDLGDISGINAS, from the HR2 region of SARS-CoV-2 spike.

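Phage display of a naive human antibody library on the peptide gave the parent. This is the validation round: designs drawn from the data on random variants, tested in the same kind of assay. Several design methods are mixed in this list. Affinity was read by AlphaSeq, a pooled yeast mating assay with surface-displayed partners. After mating in shaken culture at 30 °C for 16 h, diploids were selected and their barcode pairs sequenced. Scores were corrected for input abundance and mapped to Kd with protein pairs of known affinity run in the same pool. The assay was run in six technical replicates.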

Each scFv is VH, the linker GGGGSGGGGSGGGGS, VL, as in the parent Ab-14, and differs from it in the CDRs of the light chain only.
VH: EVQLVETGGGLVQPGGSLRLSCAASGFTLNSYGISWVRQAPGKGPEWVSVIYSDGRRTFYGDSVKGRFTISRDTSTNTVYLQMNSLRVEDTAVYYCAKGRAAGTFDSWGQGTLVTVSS
VL: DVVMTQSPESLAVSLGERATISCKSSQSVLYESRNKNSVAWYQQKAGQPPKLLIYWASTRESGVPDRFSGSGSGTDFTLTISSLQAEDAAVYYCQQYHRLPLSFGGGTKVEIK

Each variant's VL is given in full. Kd is apparent (estimated from mating counts) and averaged on the log scale over replicates with a signal. Smaller is tighter. "not detected" marks a missing value. The strain was present, yet no cells mated with the target were sequenced in any replicate, which points to weak or no binding. Entries are sorted by rising average, undetected variants last. The range of this assay differs from that of the first round, and the authors advise against merging the two. Nonspecific signal, from three strains lacking the peptide, appeared in 4% of pairings of all light chain designs, centred on 430 nM (5% of these signals below 38 nM); values are not corrected for it. Also given: how often the same scFv was detected with the empty control strains. The parent sequence was in this pool as ten entries: three were never detected, three once, and four in most replicates, with averages from 2.2 nM to 240 nM. The authors' rule: three or more of the six replicates give a measured affinity, fewer mean a poor binder.

VL | Kd | detected | empty controls
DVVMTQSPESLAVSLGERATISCKLPQSVLYESRNKNSVAWYQQKAGQPPKLLIYNASQRESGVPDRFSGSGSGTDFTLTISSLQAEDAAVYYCQDYHRLPLSFGGGTKVEIK | 750 pM | 6 of 6 | 4 of 18
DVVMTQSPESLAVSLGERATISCKVSQSQLYESRNKNSVAWYQQKAGQPPKLLIYNASTREDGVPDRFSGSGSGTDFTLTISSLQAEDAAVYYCQQYHRLPLSFGGGTKVEIK | 780 pM | 6 of 6 | 0 of 18
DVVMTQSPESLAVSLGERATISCKLYFNVGTMSHNKQNIAWYQQKAGQPPKLLIYDMERREDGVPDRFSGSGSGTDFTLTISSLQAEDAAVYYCQQYHRLPLSFGGGTKVEIK | 840 pM | 6 of 6 | 1 of 18
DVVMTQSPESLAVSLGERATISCKSSQDVLYESRNKNSVAWYQQKAGQPPKLLIYEASTREHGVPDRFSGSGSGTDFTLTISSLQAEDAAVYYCQQYHRLCVSFGGGTKVEIK | 1.1 nM | 6 of 6 | 0 of 18
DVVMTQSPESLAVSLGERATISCLGNYEDQDDDRGMNNIAWYQQKAGQPPKLLIYNGDTKMQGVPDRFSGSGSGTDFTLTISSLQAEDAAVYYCQQYYRLPLSFGGGTKVEIK | 1.1 nM | 6 of 6 | 1 of 18
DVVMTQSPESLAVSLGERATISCKIQQSELYEDRQKNSVAWYQQKAGQPPKLLIYNASDRMSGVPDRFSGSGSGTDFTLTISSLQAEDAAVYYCQQYHRLPLSFGGGTKVEIK | 1.2 nM | 6 of 6 | 0 of 18
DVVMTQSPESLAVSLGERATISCKSSQSFTYESRNVNSVAWYQQKAGQPPKLLIYNASTRYSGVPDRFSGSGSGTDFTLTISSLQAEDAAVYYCQQYHRLPLSFGGGTKVEIK | 2.2 nM | 6 of 6 | 3 of 18
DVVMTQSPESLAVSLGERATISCQMRLMYENSGHRMNSIAWYQQKAGQPPKLLIYDETMKPDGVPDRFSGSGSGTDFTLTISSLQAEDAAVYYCQQYVRLPLHFGGGTKVEIK | 3.6 nM | 6 of 6 | 2 of 18
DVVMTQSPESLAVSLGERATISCQISQVMGISTHGVNNVAWYQQKAGQPPKLLIYQMETREEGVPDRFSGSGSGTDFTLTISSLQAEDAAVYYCQQYDRLPLSFGGGTKVEIK | 6.5 nM | 6 of 6 | 0 of 18
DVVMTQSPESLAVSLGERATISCQVQAFNEHEKDQTQAMAWYQQKAGQPPKLLIYEASMRDAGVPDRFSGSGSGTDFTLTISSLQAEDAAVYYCQQYERLPLSFGGGTKVEIK | 10 nM | 6 of 6 | 0 of 18
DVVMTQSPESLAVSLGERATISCKSLQLVLYESRNKNSVAWYQQKAGQPPKLLIYHASTREDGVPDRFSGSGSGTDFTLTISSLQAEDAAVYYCQQYHRLPLSFGGGTKVEIK | 10 nM | 6 of 6 | 0 of 18
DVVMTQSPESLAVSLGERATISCILSQMLLTAGNKHSSVAWYQQKAGQPPKLLIYQANNREEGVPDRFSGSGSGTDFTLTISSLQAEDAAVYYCQQYHRLPLSFGGGTKVEIK | 64 nM | 6 of 6 | 1 of 18
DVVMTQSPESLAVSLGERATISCKLSVHTLFESIEKNSVAWYQQKAGQPPKLLIYERSTRESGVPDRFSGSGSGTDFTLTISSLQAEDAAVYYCQDYNRLPLSFGGGTKVEIK | 67 nM | 2 of 6 | 0 of 18
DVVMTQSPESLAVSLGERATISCILYESVGTLSRQKNSVAWYQQKAGQPPKLLIYDNSTRESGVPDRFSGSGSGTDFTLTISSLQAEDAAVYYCQQYDRLPLSFGGGTKVEIK | 770 nM | 4 of 6 | 2 of 18
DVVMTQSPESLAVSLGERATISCKLSQSVLHESRNKNSVAWYQQKAGQPPKLLIYWASTRESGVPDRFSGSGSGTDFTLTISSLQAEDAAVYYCQQYHRLILSFGGGTKVEIK | not detected | 0 of 6 | 0 of 18
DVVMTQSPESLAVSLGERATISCKSSQSVLKESLNKNSVAWYQQKAGQPPKLLIYWASTRESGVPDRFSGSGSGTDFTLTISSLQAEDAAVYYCQQYHRDPLSFGGGTKVEIK | not detected | 0 of 6 | 0 of 18

Top 2 of the variants detected in all replicates, tightest first:

VL,Kd,detected,empty controls
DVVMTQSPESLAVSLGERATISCKLPQSVLYESRNKNSVAWYQQKAGQPPKLLIYNASQRESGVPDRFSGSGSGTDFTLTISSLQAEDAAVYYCQDYHRLPLSFGGGTKVEIK,750 pM,6 of 6,4 of 18
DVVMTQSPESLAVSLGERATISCKVSQSQLYESRNKNSVAWYQQKAGQPPKLLIYNASTREDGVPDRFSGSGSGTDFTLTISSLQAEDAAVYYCQQYHRLPLSFGGGTKVEIK,780 pM,6 of 6,0 of 18